{"source": "paper PMC6848745", "about": "(Psychopharmacology, 2018)", "origin": "cited, not measured here", "settings": "humans, after a 200 μg p.o. dose; ref Dolder et al. 2015; cited from earlier work", "data": [{"compound": "CCN(CC)C(=O)[C@@H]1C=C2c3cccc4[nH]cc(c34)C[C@H]2N(C)C1", "note": "[LSD, (+)-Lysergic acid diethylamide]", "values": [{"measurement": "concentration in cerebrospinal fluid (CSF)", "result": "0.6 to 0.8", "unit": "nM"}]}]}
